Laboratory results: ChEMBL document CHEMBL1828590 (J Med Chem, 2011)

Target: T1, Polyamine deacetylase HDAC10 (Homo sapiens, UniProt Q969S8)
T1 sequence (Q969S8 whole entry): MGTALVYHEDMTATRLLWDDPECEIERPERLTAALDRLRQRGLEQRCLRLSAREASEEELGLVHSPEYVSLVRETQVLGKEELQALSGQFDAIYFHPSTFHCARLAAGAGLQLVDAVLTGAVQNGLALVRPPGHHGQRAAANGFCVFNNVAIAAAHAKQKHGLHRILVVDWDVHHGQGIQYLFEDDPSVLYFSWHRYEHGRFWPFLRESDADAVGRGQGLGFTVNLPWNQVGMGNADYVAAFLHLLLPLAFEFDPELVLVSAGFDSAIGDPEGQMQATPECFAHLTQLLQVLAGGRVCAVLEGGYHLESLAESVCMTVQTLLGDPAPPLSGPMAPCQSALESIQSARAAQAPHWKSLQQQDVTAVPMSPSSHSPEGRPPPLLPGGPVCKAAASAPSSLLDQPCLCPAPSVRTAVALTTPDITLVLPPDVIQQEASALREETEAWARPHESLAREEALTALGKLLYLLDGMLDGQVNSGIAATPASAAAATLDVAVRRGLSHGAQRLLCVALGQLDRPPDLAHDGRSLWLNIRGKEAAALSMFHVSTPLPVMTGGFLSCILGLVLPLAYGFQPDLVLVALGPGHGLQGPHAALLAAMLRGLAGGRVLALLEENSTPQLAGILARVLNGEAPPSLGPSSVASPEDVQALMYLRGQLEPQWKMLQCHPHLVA

Molecule `O=C(CCCCCCC(=O)Nc1ccccc1)NO` [VORINOSTAT] has a Ki of 60 nM.
